From ChEMBL document CHEMBL1150977, “A quantitative analysis of kinase inhibitor selectivity” (Nat Biotechnol, 2008)

Sequences of proteins named here, by UniProt entry; tags and fusion partners are left off. A change or cut given only in a name is not applied to a line headed by its entry.
UniProt P50750, whole entry: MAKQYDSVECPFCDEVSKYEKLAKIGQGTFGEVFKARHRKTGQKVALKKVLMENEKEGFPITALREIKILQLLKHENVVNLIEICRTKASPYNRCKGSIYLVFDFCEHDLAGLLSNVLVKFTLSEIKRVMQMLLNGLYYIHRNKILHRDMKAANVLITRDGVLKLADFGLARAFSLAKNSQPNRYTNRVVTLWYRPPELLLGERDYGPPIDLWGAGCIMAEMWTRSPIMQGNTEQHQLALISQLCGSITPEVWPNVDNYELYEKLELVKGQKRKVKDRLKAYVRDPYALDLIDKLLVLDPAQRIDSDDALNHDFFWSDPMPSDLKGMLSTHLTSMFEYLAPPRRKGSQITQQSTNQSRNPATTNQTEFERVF
UniProt Q2M2I8: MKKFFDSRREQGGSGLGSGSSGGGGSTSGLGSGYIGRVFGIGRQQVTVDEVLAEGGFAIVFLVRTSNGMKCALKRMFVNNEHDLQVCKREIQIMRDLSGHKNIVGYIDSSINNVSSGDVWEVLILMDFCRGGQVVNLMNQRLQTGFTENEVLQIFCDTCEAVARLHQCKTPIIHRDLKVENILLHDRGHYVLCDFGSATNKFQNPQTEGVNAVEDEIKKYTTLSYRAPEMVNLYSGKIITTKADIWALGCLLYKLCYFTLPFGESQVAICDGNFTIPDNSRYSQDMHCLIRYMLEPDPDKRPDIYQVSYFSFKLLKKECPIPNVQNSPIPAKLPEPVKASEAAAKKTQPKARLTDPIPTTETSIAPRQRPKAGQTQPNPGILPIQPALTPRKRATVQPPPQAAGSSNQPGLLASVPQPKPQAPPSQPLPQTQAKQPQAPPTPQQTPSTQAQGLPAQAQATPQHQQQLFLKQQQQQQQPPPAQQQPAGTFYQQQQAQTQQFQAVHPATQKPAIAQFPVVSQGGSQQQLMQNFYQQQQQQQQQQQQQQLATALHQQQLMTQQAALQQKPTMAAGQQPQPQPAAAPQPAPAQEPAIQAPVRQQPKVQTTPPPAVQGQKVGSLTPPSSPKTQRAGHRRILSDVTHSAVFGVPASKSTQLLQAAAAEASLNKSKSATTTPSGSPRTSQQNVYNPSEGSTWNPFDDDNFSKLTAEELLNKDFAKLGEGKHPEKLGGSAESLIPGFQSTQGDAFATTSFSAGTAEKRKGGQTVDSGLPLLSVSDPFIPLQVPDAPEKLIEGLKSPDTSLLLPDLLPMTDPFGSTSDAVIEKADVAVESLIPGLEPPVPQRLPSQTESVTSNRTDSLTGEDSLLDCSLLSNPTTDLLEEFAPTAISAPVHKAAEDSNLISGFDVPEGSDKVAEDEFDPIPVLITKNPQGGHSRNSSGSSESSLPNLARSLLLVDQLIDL
UniProt P41240: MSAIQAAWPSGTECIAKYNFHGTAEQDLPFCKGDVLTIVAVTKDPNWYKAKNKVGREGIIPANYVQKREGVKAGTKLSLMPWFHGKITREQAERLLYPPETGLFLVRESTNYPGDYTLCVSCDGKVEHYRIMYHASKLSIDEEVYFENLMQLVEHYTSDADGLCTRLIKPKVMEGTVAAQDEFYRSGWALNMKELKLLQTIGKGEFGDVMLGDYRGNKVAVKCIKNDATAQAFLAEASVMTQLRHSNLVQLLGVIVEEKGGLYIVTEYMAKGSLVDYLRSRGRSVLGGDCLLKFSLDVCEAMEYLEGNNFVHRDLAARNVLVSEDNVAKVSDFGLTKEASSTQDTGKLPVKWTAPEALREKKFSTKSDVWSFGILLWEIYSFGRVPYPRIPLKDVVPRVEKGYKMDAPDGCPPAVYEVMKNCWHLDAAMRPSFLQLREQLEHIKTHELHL
UniProt P49759: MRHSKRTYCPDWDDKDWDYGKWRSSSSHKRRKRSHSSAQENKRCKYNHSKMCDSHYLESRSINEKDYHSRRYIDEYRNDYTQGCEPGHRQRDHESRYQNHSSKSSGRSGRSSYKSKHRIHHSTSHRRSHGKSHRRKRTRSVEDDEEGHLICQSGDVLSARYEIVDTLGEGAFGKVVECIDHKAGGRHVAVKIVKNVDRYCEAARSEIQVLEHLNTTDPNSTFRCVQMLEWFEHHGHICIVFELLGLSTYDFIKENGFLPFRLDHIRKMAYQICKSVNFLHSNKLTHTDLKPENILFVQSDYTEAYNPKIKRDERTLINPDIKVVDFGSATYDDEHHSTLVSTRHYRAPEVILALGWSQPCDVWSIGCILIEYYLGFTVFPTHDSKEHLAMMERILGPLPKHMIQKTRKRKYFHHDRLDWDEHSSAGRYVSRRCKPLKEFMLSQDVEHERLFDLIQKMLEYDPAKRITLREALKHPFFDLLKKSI
UniProt O00506, whole entry: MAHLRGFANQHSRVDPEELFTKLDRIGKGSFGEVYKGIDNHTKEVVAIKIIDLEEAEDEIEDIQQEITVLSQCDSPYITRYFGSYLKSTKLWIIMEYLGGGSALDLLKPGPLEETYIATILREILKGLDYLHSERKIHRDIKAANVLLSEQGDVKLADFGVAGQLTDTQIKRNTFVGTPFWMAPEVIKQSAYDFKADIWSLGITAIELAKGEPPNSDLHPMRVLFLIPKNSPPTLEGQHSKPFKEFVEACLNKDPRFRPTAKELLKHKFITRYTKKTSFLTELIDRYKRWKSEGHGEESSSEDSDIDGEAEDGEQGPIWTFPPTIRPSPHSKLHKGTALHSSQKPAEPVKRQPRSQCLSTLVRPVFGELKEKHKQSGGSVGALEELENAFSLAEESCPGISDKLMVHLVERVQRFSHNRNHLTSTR
UniProt Q16816: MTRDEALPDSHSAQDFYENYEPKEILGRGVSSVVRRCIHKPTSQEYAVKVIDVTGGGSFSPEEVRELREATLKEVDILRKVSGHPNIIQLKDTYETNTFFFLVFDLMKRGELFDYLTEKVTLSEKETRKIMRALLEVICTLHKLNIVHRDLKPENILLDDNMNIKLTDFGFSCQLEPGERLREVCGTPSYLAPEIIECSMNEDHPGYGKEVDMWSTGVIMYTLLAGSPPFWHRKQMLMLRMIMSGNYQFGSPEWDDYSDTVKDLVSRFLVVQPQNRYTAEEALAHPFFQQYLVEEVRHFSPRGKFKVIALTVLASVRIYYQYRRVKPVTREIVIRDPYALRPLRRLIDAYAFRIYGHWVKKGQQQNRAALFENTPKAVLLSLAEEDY
UniProt Q13153, whole entry: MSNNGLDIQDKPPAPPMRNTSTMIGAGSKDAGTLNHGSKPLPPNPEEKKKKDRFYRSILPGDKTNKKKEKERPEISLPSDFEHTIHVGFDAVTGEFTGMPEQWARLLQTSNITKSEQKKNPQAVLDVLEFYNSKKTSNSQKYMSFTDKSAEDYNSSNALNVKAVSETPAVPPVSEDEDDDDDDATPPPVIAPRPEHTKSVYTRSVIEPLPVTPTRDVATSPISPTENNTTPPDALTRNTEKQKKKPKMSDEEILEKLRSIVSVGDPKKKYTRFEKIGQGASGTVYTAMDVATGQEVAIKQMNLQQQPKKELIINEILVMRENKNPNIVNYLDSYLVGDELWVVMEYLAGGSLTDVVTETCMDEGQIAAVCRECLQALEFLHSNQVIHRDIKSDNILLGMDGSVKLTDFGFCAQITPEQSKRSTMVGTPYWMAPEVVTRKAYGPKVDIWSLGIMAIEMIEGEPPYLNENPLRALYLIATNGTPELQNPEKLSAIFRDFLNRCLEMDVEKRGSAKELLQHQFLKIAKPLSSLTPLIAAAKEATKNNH
UniProt Q16539, whole entry: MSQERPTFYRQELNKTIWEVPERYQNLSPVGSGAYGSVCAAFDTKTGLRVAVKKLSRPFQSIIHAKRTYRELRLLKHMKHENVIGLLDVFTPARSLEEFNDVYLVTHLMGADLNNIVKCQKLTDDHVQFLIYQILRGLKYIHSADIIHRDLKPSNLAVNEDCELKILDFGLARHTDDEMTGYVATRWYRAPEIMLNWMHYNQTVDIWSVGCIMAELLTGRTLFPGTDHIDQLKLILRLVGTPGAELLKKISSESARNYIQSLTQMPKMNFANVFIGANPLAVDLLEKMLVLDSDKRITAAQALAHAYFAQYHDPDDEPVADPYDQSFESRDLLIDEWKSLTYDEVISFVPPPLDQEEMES

Columns and labels:
[1] = target: Cyclin-dependent kinase 9 (Homo sapiens, UniProt P50750)
[2] = target: AP2-associated protein kinase 1 (Homo sapiens, UniProt Q2M2I8)
[3] = target: Tyrosine-protein kinase CSK (Homo sapiens, UniProt P41240)
[4] = target: Dual specificity protein kinase CLK1 (Homo sapiens, UniProt P49759)
[5] = target: Serine/threonine-protein kinase 25 (Homo sapiens, UniProt O00506)
[6] = target: Phosphorylase b kinase gamma catalytic chain, skeletal muscle/heart isoform (Homo sapiens, UniProt Q16816)
Ephrin type-A receptor 8 = target: T1, Ephrin type-A receptor 8 (Homo sapiens, UniProt P29322)
T1 sequence (P29322 whole entry): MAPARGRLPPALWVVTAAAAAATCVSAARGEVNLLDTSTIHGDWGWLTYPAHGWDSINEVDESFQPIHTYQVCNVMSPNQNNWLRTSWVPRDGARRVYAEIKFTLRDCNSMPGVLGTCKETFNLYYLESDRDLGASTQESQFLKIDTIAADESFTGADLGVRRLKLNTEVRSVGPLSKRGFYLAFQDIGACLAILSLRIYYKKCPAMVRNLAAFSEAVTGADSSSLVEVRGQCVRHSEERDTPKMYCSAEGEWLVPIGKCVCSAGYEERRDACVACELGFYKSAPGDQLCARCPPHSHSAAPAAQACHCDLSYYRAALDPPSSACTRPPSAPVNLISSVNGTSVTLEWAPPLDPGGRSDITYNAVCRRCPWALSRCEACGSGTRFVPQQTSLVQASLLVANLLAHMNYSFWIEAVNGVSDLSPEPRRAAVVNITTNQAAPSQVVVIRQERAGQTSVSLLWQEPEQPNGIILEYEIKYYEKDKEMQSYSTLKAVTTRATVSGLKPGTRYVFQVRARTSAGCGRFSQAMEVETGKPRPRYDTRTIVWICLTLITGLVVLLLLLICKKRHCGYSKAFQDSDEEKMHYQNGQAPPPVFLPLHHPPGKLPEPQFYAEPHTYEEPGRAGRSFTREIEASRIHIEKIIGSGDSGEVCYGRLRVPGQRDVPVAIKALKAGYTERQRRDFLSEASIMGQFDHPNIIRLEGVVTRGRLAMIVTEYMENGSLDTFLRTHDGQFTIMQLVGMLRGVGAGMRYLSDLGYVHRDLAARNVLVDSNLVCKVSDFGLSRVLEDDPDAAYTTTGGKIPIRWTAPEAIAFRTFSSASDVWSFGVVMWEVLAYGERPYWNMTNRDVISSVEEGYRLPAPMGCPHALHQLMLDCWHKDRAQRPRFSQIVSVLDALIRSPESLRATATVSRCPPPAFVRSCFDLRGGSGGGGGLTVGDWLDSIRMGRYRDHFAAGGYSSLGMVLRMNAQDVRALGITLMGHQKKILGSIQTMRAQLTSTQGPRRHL

[7] = target: Serine/threonine-protein kinase PAK 1 (Homo sapiens, UniProt Q13153)
[8] = target: Mitogen-activated protein kinase 14 (Homo sapiens, UniProt Q16539)

| Structure (SMILES) | Kd [1] [µM] | Kd [2] [µM] | Kd [3] [µM] | Kd [4] [µM] | Kd [5] [µM] | Kd [6] [µM] | Kd (Ephrin type-A receptor 8) [µM] | Kd [7] [µM] | Kd [8] [µM] |
| --- | --- | --- | --- | --- | --- | --- | --- | --- | --- |
| COCC(=O)NC/C=C/c1ccc2ncnc(Nc3ccc(Oc4ccc(C)nc4)c(C)c3)c2c1 [CP-724714] | > 10 | – | – | – | – | – | – | – | – |
| CCOc1cc2ncc(C#N)c(Nc3ccc(F)c(Cl)c3)c2cc1NC(=O)/C=C/CN(C)C [PELITINIB] | > 10 | 3.5 | 3.4 | 3.3 | 3.4 | 3.5 | 3.3 | 3.4 | – |
| NC(=O)c1ccc(-c2nc(-c3ccc4c(c3)OCO4)c(-c3ccccn3)[nH]2)cc1 [SB-431542] | – | – | – | – | – | – | – | – | > 10 |
